Chains of the proteins cited; added tags and fusions are not shown. Lines headed by an entry give the natural chain unless they say otherwise; changes in a name come on top.
UniProt Q9Y5N1: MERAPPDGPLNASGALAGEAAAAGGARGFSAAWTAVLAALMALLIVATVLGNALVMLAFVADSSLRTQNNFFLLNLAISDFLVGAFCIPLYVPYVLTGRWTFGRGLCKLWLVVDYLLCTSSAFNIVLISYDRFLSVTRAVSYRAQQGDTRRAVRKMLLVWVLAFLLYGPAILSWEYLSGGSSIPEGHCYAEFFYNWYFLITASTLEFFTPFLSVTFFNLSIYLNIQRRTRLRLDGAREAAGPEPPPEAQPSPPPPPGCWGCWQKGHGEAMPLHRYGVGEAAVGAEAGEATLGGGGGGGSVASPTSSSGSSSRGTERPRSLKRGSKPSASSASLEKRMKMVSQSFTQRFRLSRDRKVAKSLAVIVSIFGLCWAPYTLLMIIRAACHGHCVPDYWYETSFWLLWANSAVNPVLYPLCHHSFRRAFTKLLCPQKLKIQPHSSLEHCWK
UniProt Q9QYN8: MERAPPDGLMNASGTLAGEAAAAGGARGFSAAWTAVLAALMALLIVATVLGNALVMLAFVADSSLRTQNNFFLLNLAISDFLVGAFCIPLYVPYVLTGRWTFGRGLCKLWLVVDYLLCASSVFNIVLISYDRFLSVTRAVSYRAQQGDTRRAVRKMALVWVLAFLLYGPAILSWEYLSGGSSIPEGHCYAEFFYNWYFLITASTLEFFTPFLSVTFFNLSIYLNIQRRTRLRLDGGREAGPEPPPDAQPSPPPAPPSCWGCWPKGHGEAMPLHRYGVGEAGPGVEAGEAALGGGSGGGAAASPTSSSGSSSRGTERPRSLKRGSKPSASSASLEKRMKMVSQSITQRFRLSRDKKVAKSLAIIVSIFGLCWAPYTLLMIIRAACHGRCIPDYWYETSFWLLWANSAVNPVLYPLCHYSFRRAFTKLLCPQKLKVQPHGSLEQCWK

According to ChEMBL document CHEMBL1944524, “Synthesis and structure-activity relationship of 5-pyridazin-3-one phenoxypiperidines as potent, selective histamine H(3) receptor inverse agonists” (Bioorg Med Chem Lett, 2012):

Assays:
[1] = biological target: Histamine H3 receptor (Homo sapiens, UniProt Q9Y5N1); assay: Binding affinity to human histamine H3 receptor
[2] = biological target: Histamine H3 receptor (Rattus norvegicus, UniProt Q9QYN8); assay: Binding affinity to rat histamine H3 receptor

Ki [1]: 1.7 nM
Ki [2]: 3.7 nM
Structure (SMILES): C[C@@H]1CCCN1CCCOc1ccc(-c2cnn(-c3ccccn3)c(=O)c2)cc1
